As a reminder, the IC50 is the midpoint of a concentration-inhibition curve.

Amino acid sequences for entries named in this document (tags omitted).
UniProt Q05397, whole entry: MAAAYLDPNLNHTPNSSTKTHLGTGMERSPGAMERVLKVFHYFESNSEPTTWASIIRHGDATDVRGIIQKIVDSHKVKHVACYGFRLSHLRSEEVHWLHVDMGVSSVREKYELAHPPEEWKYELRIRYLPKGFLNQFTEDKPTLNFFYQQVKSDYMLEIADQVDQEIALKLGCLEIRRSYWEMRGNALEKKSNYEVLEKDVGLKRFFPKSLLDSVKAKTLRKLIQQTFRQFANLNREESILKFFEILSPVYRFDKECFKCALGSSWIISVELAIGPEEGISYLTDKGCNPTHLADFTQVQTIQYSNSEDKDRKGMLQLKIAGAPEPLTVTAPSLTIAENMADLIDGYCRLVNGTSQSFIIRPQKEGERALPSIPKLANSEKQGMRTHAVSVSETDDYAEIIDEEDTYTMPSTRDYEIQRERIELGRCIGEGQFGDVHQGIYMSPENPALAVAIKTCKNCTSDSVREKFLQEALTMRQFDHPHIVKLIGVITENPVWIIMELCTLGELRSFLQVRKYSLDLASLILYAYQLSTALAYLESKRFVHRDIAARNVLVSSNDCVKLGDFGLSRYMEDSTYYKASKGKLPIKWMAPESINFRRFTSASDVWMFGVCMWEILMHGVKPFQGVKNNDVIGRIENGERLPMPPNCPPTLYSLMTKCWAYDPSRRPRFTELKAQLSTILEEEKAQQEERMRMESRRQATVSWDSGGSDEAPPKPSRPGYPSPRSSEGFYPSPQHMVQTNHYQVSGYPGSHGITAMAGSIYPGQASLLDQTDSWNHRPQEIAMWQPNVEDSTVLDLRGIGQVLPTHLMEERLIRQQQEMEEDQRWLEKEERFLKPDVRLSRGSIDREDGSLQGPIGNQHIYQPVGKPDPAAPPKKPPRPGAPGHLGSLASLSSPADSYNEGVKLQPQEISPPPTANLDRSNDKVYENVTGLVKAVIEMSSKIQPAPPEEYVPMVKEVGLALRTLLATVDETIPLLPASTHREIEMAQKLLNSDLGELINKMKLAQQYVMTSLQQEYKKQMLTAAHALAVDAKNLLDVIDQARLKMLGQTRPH

Here are results for one compound from US8466155B2, “Pyrimidines” (Boehringer Ingelheim International GmbH, priority 2009, dated 2013).

For the test, the target named is PTK2 (Homo sapiens, UniProt Q05397). The experiment in a line: PTK2 enzyme test, Assay 1 (DELFIA, PT60 antibody). Format: biochemical. As to conditions: read-out: PTK2 1 h IC50, 1 h pre-incubation, 1 h kinase reaction, values without *.

On to `COc1cc(C(=O)NC2CCN(C)CC2)c(Cl)cc1Nc1ncc(C(F)(F)F)c(O[C@@H]2CCC[C@H]2NS(C)(=O)=O)n1`, for which the IC50 stood at 1 nM.
